The values that follow come from US20060223879A1, “Non-steroidal farnesoid x receptor modulators” (priority 2002, published 2006).

Chains of the proteins cited; added tags and fusions are not shown.
UniProt Q96RI1, whole entry: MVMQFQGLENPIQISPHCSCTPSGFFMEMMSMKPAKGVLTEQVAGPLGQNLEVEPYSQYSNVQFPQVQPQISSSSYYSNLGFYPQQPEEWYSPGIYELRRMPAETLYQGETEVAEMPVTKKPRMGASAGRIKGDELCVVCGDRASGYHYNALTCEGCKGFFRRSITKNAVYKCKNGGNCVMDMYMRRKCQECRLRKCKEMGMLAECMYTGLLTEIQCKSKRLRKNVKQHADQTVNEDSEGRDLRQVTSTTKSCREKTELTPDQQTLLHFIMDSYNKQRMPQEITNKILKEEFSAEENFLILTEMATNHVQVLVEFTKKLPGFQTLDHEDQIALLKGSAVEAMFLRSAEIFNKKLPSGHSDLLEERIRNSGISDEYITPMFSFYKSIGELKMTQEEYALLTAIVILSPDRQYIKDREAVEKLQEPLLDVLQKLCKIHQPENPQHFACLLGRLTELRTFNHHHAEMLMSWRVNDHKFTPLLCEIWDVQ

The test addresses FXR (Homo sapiens, UniProt Q96RI1). In words: cell-based transcription assay, FXR responsive promoter linked to a luciferase reporter. (Reporter assays use an easily measured gene product as a stand-in for the process of interest.)

Take `COC(=O)/C=C/c1cccc(N(Cc2ccc(/C=C/c3c(F)cccc3F)cc2)C(=O)C(C)C)c1`: the “FXR activation (in words)” value is “excellent activity”.
